Literature values in patent publication US11413240B2 (Board of Regents, The University of Texas System, priority 2016, dated 2022).

Details: oral tablet vs intravenous (Walter-Sack et al., 2009)

- maximum whole blood concentration, oral relative to intravenous administration: 1/100
Structure (SMILES): CN(C)c1ccc2nc3ccc(=[N+](C)C)cc-3sc2c1 [methylene blue]
